The values that follow are results of earlier work, collected in paper PMC1562422.

Protein sequences, listed by entry. Tags and fused reporters are not part of them. Residues count along the entry.
UniProt P01589, 22-240, chain 1 of 2: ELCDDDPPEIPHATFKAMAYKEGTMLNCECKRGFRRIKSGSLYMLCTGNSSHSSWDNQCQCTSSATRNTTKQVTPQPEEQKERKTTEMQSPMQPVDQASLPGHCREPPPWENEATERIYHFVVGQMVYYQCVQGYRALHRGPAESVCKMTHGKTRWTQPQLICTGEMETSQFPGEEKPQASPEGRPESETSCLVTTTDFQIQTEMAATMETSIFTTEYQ
UniProt P60568, 21-153: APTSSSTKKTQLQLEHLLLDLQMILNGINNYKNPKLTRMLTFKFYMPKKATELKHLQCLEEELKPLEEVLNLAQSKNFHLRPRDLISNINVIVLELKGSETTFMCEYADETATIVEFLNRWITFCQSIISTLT

The target of this data set is IL2 receptor α/β heterodimer (Homo sapiens) (UniProt P01589). Put plainly: SPR.

As usually defined, the Kd is the concentration at which binding is half-saturated. Turning to IL2 (from UniProt P60568), the Kd was 0.3 nM.
